Measured values: ChEMBL document CHEMBL1126679 (J Med Chem, 1993)

By UniProt entry, the sequences of proteins in these tests, tags left out.
UniProt P61169, whole entry: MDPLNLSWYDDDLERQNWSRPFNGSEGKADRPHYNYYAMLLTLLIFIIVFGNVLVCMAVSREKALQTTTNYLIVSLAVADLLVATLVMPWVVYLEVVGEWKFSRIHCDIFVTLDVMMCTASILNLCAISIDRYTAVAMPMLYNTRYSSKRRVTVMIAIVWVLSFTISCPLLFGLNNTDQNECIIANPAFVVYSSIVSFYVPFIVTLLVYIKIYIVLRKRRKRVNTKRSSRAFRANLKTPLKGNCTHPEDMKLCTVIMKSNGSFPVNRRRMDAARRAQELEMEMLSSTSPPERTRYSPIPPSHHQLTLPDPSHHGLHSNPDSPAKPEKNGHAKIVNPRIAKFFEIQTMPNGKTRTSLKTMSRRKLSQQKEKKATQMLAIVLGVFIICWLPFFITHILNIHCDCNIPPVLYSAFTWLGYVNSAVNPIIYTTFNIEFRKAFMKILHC

Experiments:
[1] = Binding affinity against 5-hydroxytryptamine 1A receptor from bovine hippocampus, used [3H]8-OH-DPAT as radioligand
D(2) dopamine receptor = D(2) dopamine receptor (Rattus norvegicus, UniProt P61169); test: Compound was tested for antagonistic activity against D2 receptor from rat striatum, used [3H]raclopride as radioligand; assay type: functional

CCCN1CC[C@H]2c3c(O)cccc3CC[C@H]21
Ki [1]: 0.1 nM

C=CCN1CC[C@H]2c3c(cccc3OC)CC[C@H]21
Ki (D(2) dopamine receptor): 5.3 nM

C=CCN1CCC2c3c(cccc3OC)CCC21 (racemic)
Ki (D(2) dopamine receptor): 13 nM

C=CCN1CC[C@H]2c3c(cccc3OC)CC[C@H]21 (single isomer, unassigned)
Ki (D(2) dopamine receptor): 270 nM
